Protein sequences, listed by entry. Tags and fused reporters are not part of them.
UniProt P21554, whole entry: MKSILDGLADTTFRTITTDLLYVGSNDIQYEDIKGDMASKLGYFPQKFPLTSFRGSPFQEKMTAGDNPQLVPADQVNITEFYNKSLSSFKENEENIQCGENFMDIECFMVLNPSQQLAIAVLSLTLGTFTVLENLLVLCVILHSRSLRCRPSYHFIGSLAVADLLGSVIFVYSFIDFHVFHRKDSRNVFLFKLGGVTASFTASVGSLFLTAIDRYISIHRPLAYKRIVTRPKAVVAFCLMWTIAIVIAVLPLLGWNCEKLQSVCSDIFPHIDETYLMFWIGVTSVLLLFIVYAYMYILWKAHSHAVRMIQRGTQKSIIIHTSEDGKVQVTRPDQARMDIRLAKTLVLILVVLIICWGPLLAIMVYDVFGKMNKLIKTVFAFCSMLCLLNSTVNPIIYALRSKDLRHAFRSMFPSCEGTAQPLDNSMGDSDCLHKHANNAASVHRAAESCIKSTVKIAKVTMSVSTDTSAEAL

In ChEMBL document CHEMBL4229498 (Bioorg Med Chem, 2018):

Target: Cannabinoid receptor 1 (Homo sapiens, UniProt P21554)
Conditions: HEK293

| Ke [nM] | SMILES |
| --- | --- |
| 2 | O=C(Nc1ccccc1F)N1CCN(c2ncnc3c2nc(-c2ccccc2Cl)n3-c2ccc(Cl)cc2)CC1 |
| 2 | O=C(Nc1ccc(F)cc1)N1CCN(c2ncnc3c2nc(-c2ccccc2Cl)n3-c2ccc(Cl)cc2)CC1 |
| 5 | O=C(Nc1ccc(F)c(F)c1)N1CCN(c2ncnc3c2nc(-c2ccccc2Cl)n3-c2ccc(Cl)cc2)CC1 |
| 98 | COC(=O)N1CCN(c2ncnc3c2nc(-c2ccccc2Cl)n3-c2ccc(Cl)cc2)CC1 |
| 1 | CC(C)S(=O)(=O)N1CCN(c2ncnc3c2nc(-c2ccccc2Cl)n3-c2ccc(Cl)cc2)CC1 |
| 410 | O=C(C1CCOCC1)N1CCN(c2ncnc3c2nc(-c2ccccc2Cl)n3-c2ccc(Cl)cc2)CC1 |
| 3 | O=C(Nc1ccccc1)N1CCN(c2ncnc3c2nc(-c2ccccc2Cl)n3-c2ccc(Cl)cc2)CC1 |
| 95 | O=C(OC1COC1)N1CCN(c2ncnc3c2nc(-c2ccccc2Cl)n3-c2ccc(Cl)cc2)CC1 |
| 4000 | N=C(c1ccc(F)cc1)N1CCN(c2ncnc3c2nc(-c2ccccc2Cl)n3-c2ccc(Cl)cc2)CC1 |
| 3200 | CN1CCC(CNC(=O)N2CCN(c3ncnc4c3nc(-c3ccccc3Cl)n4-c3ccc(Cl)cc3)CC2)CC1 |
| 740 | Cn1nnc(CCC(=O)N2CCN(c3ncnc4c3nc(-c3ccccc3Cl)n4-c3ccc(Cl)cc3)CC2)n1 |
| 1800 | O=C(C1CCS(=O)(=O)CC1)N1CCN(c2ncnc3c2nc(-c2ccccc2Cl)n3-c2ccc(Cl)cc2)CC1 |
| 670 | O=C(N1CCOCC1)N1CCN(c2ncnc3c2nc(-c2ccccc2Cl)n3-c2ccc(Cl)cc2)CC1 |
| 150 | Cc1cc(NC(=O)N2CCN(c3ncnc4c3nc(-c3ccccc3Cl)n4-c3ccc(Cl)cc3)CC2)no1 |
| 100 | CC(C)CNC(=O)N1CCN(c2ncnc3c2nc(-c2ccccc2Cl)n3-c2ccc(Cl)cc2)CC1 |
| 72 | COCCC(=O)N1CCN(c2ncnc3c2nc(-c2ccccc2Cl)n3-c2ccc(Cl)cc2)CC1 |
| 36 | O=C(CC1CCOCC1)N1CCN(c2ncnc3c2nc(-c2ccccc2Cl)n3-c2ccc(Cl)cc2)CC1 |

| Ke [nM] | SMILES |
| --- | --- |
| 370 | O=C(CN1CCOCC1)N1CCN(c2ncnc3c2nc(-c2ccccc2Cl)n3-c2ccc(Cl)cc2)CC1 |
| 2200 | O=C(NC1CCOCC1)N1CCN(c2ncnc3c2nc(-c2ccccc2Cl)n3-c2ccc(Cl)cc2)CC1 |
| 5900 | O=C(NCC1CCOCC1)N1CCN(c2ncnc3c2nc(-c2ccccc2Cl)n3-c2ccc(Cl)cc2)CC1 |
| 1200 | Cn1cc(NC(=O)N2CCN(c3ncnc4c3nc(-c3ccccc3Cl)n4-c3ccc(Cl)cc3)CC2)cn1 |
| 54 | O=C(NC1CCCC1)N1CCN(c2ncnc3c2nc(-c2ccccc2Cl)n3-c2ccc(Cl)cc2)CC1 |
| 4900 | CN1CCC(NC(=O)N2CCN(c3ncnc4c3nc(-c3ccccc3Cl)n4-c3ccc(Cl)cc3)CC2)CC1 |
| 3200 | CS(=O)(=O)CCC(=O)N1CCN(c2ncnc3c2nc(-c2ccccc2Cl)n3-c2ccc(Cl)cc2)CC1 |
| 1000 | Cn1ccc(NC(=O)N2CCN(c3ncnc4c3nc(-c3ccccc3Cl)n4-c3ccc(Cl)cc3)CC2)n1 |
| 510 | N=C(Nc1ccc(F)cc1)N1CCN(c2ncnc3c2nc(-c2ccccc2Cl)n3-c2ccc(Cl)cc2)CC1 |
| 200 | CC(C)(O)CC(=O)N1CCN(c2ncnc3c2nc(-c2ccccc2Cl)n3-c2ccc(Cl)cc2)CC1 |
| 50 | COCCS(=O)(=O)N1CCN(c2ncnc3c2nc(-c2ccccc2Cl)n3-c2ccc(Cl)cc2)CC1 |
| 120 | CC(=O)N1CCN(c2ncnc3c2nc(-c2ccccc2Cl)n3-c2ccc(Cl)cc2)CC1 |
| 0.9 | CCCCS(=O)(=O)N1CCN(c2ncnc3c2nc(-c2ccccc2Cl)n3-c2ccc(Cl)cc2)CC1 |
| 2 | CCCS(=O)(=O)N1CCN(c2ncnc3c2nc(-c2ccccc2Cl)n3-c2ccc(Cl)cc2)CC1 |
| 8 | O=C(Nc1ccccn1)N1CCN(c2ncnc3c2nc(-c2ccccc2Cl)n3-c2ccc(Cl)cc2)CC1 |
| 105 | O=C(OC1CCOCC1)N1CCN(c2ncnc3c2nc(-c2ccccc2Cl)n3-c2ccc(Cl)cc2)CC1 |

| SMILES | Ke [nM] |
| --- | --- |
| O=C(N1CCN(c2ncnc3c2nc(-c2ccccc2Cl)n3-c2ccc(Cl)cc2)CC1)C(F)(F)F | 0.4 |
| CC(C(=O)N1CCN(c2ncnc3c2nc(-c2ccccc2Cl)n3-c2ccc(Cl)cc2)CC1)c1ccccc1 (stereo not given) | 1.5 |
| O=C(CC1CCCC1)N1CCN(c2ncnc3c2nc(-c2ccccc2Cl)n3-c2ccc(Cl)cc2)CC1 | 0.1 |
| O=S(=O)(CC1CCCCC1)N1CCN(c2ncnc3c2nc(-c2ccccc2Cl)n3-c2ccc(Cl)cc2)CC1 | 0.6 |
| CCOCC(=O)N1CCN(c2ncnc3c2nc(-c2ccccc2Cl)n3-c2ccc(Cl)cc2)CC1 | 20 |
| O=C(CC1CCOC1)N1CCN(c2ncnc3c2nc(-c2ccccc2Cl)n3-c2ccc(Cl)cc2)CC1 (stereo not given) | 19 |
| CS(=O)(=O)N1CCN(c2ncnc3c2nc(-c2ccccc2Cl)n3-c2ccc(Cl)cc2)CC1 | 3 |
| CC(C)CS(=O)(=O)N1CCN(c2ncnc3c2nc(-c2ccccc2Cl)n3-c2ccc(Cl)cc2)CC1 | 0.5 |
| O=C(OC1CCC1)N1CCN(c2ncnc3c2nc(-c2ccccc2Cl)n3-c2ccc(Cl)cc2)CC1 | 10 |
| O=C(NC1CCCCC1)N1CCN(c2ncnc3c2nc(-c2ccccc2Cl)n3-c2ccc(Cl)cc2)CC1 | 41 |
| O=C(N1CCCC1)N1CCN(c2ncnc3c2nc(-c2ccccc2Cl)n3-c2ccc(Cl)cc2)CC1 | 66 |
| O=C(C1COc2ccccc2O1)N1CCN(c2ncnc3c2nc(-c2ccccc2Cl)n3-c2ccc(Cl)cc2)CC1 (stereo not given) | 6 |
| CCS(=O)(=O)N1CCN(c2ncnc3c2nc(-c2ccccc2Cl)n3-c2ccc(Cl)cc2)CC1 | 17 |
| O=S(=O)(C1CC1)N1CCN(c2ncnc3c2nc(-c2ccccc2Cl)n3-c2ccc(Cl)cc2)CC1 | 17 |
| CC(C)(C)OC(=O)N1CCN(c2ncnc3c2nc(-c2ccccc2Cl)n3-c2ccc(Cl)cc2)CC1 | 4 |
| O=C(C1CCSCC1)N1CCN(c2ncnc3c2nc(-c2ccccc2Cl)n3-c2ccc(Cl)cc2)CC1 | 2 |
| CCCCC(=O)N1CCN(c2ncnc3c2nc(-c2ccccc2Cl)n3-c2ccc(Cl)cc2)CC1 | 0.6 |
| O=C(NCC1CCCCC1)N1CCN(c2ncnc3c2nc(-c2ccccc2Cl)n3-c2ccc(Cl)cc2)CC1 | 35 |
| O=S(=O)(CCC(F)(F)F)N1CCN(c2ncnc3c2nc(-c2ccccc2Cl)n3-c2ccc(Cl)cc2)CC1 | 15 |
| COCCOC(=O)N1CCN(c2ncnc3c2nc(-c2ccccc2Cl)n3-c2ccc(Cl)cc2)CC1 | 54 |
| O=C(Nc1ccc(F)cc1F)N1CCN(c2ncnc3c2nc(-c2ccccc2Cl)n3-c2ccc(Cl)cc2)CC1 | 10 |
| CC(C)(C)CC(=O)N1CCN(c2ncnc3c2nc(-c2ccccc2Cl)n3-c2ccc(Cl)cc2)CC1 | 0.14 |
| O=C(NC1(C(F)(F)F)CCCC1)N1CCN(c2ncnc3c2nc(-c2ccccc2Cl)n3-c2ccc(Cl)cc2)CC1 | 17 |
| O=C(Nc1ccc(OC(F)F)nc1)N1CCN(c2ncnc3c2nc(-c2ccccc2Cl)n3-c2ccc(Cl)cc2)CC1 | 13 |
| O=C(NS(=O)(=O)c1ccccc1F)N1CCN(c2ncnc3c2nc(-c2ccccc2Cl)n3-c2ccc(Cl)cc2)CC1 | 420 |
| O=S(=O)(CC1CCOCC1)N1CCN(c2ncnc3c2nc(-c2ccccc2Cl)n3-c2ccc(Cl)cc2)CC1 | 4 |
| O=C(CN1CCCCC1)N1CCN(c2ncnc3c2nc(-c2ccccc2Cl)n3-c2ccc(Cl)cc2)CC1 | 34 |
